This assay addresses Recombinant MAPKAPK2 (Homo sapiens, UniProt P49137). In words: Determination of MK-2 IC50 (HSP-peptide phosphorylation, anion exchange resin capture assay). It is filed as biochemical.
The mark [1] stands for this setting: MK-2 Avg. IC50, Table I, aminocyanopyridine MK-2 inhibitors.
[2] abbreviates: MK-2 Avg. IC50, Table 2, tricyclic aminocyanopyridine MK-2 inhibitors.

By UniProt entry, the sequences of proteins in these tests, tags left out.
UniProt P49137, whole entry, species assumed: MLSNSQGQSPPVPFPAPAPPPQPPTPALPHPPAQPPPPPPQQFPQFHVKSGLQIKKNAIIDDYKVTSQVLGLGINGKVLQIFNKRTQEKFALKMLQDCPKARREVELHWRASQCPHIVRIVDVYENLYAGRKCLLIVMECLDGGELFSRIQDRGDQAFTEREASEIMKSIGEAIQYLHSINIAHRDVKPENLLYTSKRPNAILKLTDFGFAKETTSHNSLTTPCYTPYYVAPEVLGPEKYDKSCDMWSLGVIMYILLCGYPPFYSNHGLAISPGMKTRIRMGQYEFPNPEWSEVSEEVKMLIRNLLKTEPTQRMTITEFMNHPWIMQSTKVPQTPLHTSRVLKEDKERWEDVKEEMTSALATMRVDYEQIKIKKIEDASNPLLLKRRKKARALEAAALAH

Structures are written as SMILES.

For orientation: IC50 means the point on the concentration scale where inhibition reaches its midpoint. Turning to `N#Cc1c(-c2ccccc2F)cc(-c2ccc(O)cc2)nc1N` [Example 54], under setting [1], the IC50 amounted to 26.8 µM. Consider `Cc1ccnc(N)c1C#N` [Example 97], for which the IC50 under setting [1] turned out to be 77 µM. Take `N#Cc1c(N)nc2c(c1N)Cc1cccc(N)c1O2` [Example 38]: the IC50 under setting [2] was found to be 5.01 µM. In the case of `Cc1ccnc(N)c1C#N` [Example 80], the IC50 under setting [1] turned out to be 51.9 µM.

Turning to `N#Cc1c(N)nc2c(c1-c1cc(F)ccc1F)CCc1[nH]ncc1-2` [Example 41], the IC50 under setting [1] is 12.8 µM. `Cc1cc(C2CC2)c(C#N)c(N)n1` [Example 82]: under setting [1], the IC50 came out at 53.7 µM. With `N#Cc1c(N)nc2c(c1N)Cc1cc(N)ccc1S2` [Example 39], the IC50 under setting [2] came to 5.6 µM.
